Test results from paper PMC7337493 (The Journal of Cell Biology, 2020).
Values belong to the binder of their own block, whether it stands above or below them.

The chains behind the UniProt entries cited, without tags or fusion partners. Where a name states a change or a piece, a line headed by the entry shows the natural chain unless it says otherwise.
UniProt O75385: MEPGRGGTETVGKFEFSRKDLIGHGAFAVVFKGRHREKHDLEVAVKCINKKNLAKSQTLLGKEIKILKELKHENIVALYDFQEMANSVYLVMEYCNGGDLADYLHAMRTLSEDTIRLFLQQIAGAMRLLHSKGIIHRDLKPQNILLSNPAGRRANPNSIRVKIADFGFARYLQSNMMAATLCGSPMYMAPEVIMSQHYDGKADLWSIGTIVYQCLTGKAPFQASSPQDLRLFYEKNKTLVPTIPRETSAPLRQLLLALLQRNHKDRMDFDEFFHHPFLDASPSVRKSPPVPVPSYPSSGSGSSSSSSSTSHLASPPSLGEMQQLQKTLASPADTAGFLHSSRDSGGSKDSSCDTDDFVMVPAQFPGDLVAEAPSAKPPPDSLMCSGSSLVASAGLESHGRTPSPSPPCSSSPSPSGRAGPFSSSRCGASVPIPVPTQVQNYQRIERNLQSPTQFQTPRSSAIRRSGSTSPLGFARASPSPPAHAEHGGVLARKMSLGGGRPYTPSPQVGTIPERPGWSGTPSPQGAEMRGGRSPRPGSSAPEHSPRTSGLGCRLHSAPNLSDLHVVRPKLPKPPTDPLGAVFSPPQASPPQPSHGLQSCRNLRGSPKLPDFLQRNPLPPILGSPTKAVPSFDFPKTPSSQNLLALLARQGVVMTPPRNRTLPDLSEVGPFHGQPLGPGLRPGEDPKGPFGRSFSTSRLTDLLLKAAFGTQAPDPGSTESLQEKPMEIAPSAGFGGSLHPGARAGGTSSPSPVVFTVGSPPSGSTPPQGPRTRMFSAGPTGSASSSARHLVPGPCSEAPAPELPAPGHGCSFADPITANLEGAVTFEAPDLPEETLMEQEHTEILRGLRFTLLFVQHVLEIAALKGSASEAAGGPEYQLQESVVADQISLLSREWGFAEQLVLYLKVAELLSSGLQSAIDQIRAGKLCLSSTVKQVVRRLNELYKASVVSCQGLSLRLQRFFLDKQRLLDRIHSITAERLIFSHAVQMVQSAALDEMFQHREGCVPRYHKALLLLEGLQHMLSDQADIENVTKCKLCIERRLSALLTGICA

Assays:
Settings in all cases: both partners purified
[1] = target: T1, MBP-ULK1:Strep-ATG13:Strep-ATG101 complex (human, UniProt O75385 1-1050; O75143 1-517; Q9BSB4 1-218); test: pull-down; Strep-Tactin resin loaded with MBP-ULK1:Strep-ATG13:Strep-ATG101; FIP200–MBP protein added at 200 nM, 4°C, gentle shaking; SDS-PAGE, Coomassie (Fig. 1 B)
T1 construct: ULK1, human; ATG13, human; ATG101, human; also called ternary ULK1:ATG13:ATG101 complex; ULK1:ATG13:ATG101; not shown: MBP, N-terminal, kept; TwinStrep-Flag (printed as Strep), N-terminal, kept; copies: + +

[2] = target: T2, Strep-ATG13:Strep-ATG101 complex (human, UniProt O75143 1-517; Q9BSB4 1-218); test: negative stain EM; purified samples diluted to ~50–200 nM, uranyl acetate stain, 2D classification; MBP tags used to mark positions
T2 construct: ATG13, human; ATG101, human; also called ATG13:ATG101; ATG13:ATG101 subcomplex; source: HEK 293-GnT1 suspension cells, transfected; not shown: TwinStrep-Flag (printed as Strep), N-terminal, kept; copies: 1 + 1
T2 sequence (looked up) 1: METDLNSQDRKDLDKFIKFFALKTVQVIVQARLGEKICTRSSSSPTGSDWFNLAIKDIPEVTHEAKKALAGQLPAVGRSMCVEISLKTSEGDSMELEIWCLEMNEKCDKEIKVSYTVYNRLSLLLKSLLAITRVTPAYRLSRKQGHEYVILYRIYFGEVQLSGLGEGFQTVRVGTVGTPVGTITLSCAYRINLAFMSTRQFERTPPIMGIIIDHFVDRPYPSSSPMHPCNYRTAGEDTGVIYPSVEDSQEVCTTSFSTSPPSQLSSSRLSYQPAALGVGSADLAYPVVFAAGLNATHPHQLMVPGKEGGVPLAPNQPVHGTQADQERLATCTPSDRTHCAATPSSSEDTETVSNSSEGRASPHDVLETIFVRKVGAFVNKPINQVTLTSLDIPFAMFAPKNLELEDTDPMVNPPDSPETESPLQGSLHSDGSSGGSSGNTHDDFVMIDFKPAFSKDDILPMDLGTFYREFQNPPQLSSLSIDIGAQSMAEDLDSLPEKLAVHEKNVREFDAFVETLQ
T2 sequence (looked up) 2: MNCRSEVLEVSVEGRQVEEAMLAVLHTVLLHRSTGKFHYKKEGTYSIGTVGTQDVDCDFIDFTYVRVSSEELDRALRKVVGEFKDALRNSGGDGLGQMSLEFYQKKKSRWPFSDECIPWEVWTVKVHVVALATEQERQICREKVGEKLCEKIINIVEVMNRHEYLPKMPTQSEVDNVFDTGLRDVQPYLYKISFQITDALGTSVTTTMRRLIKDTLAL

[3] = target: T3, MBP-ATG13:MBP-ATG101 complex (human, UniProt O75143 1-517; Q9BSB4 1-218); test: as above
T3 construct: ATG13, human; ATG101, human; also called dual MBP-tagged HORMA domains; source: HEK 293-GnT1 suspension cells, transfected, purified in complex with FIP200NTD and ULK1 EAT; not shown: MBP, N-terminal, kept
T3 sequence (looked up) 1: T2 sequence (looked up) 1
T3 sequence (looked up) 2: T2 sequence (looked up) 2

ATG13-MBP:ATG101 complex = target: T4, ATG13-MBP:ATG101 complex (human, UniProt O75143 1-517; Q9BSB4 1-218); test: as above
T4 construct: ATG13, human; ATG101, human; source: HEK 293-GnT1 suspension cells, transfected, purified in complex with FIP200NTD and ULK1 EAT–MBP; not shown: MBP, C-terminal, kept
T4 sequence (looked up) 1: T2 sequence (looked up) 1
T4 sequence (looked up) 2: T2 sequence (looked up) 2

[4] = target: T2, Strep-ATG13:Strep-ATG101 complex; test: pull-down; GSH resin loaded with GST-FIP200NTD; MBP-ULK1 or Strep-ATG13:Strep-ATG101 added alone; 200 nM; 20 mM Hepes pH 8.0, 200 mM NaCl, 1 mM TCEP, 5 mM desthiobiotin, 1% Triton-X-100; SDS-PAGE, Coomassie (Fig. 2 A)

binding result [1]: binds
B1: FIP200NTD–MBP (domain or fragment, human, UniProt Q8TDY2 1-640, looked up)
chain: MKLYVFLVNTGTTLTFDTELTVQTVADLKHAIQSKYKIAIQHQVLVVNGGECMAADRRVCTYSAGTDTNPIFLFNKEMILCDRPPAIPKTTFSTENDMEIKVEESLMMPAVFHTVASRTQLALEMYEVAKKLCSFCEGLVHDEHLQHQGWAAIMANLEDCSNSYQKLLFKFESIYSNYLQSIEDIKLKLTHLGTAVSVMAKIPLLECLTRHSYRECLGRLDSLPEHEDSEKAEMKRSTELVLSPDMPRTTNESLLTSFPKSVEHVSPDTADAESGKEIRESCQSTVHQQDETTIDTKDGDLPFFNVSLLDWINVQDRPNDVESLVRKCFDSMSRLDPRIIRPFIAECRQTIAKLDNQNMKAIKGLEDRLYALDQMIASCGRLVNEQKELAQGFLANQKRAENLKDASVLPDLCLSHANQLMIMLQNHRKLLDIKQKCTTAKQELANNLHVRLKWCCFVMLHADQDGEKLQALLRLVIELLERVKIVEALSTVPQMYCLAVVEVVRRKMFIKHYREWAGALVKDGKRLYEAEKSKRESFGKLFRKSFLRNRLFRGLDSWPPSFCTQKPRKFDCELPDISLKDLQFLQSFCPSEVQPFLRVPLLCDFEPLHQHVLALHNLVKAAQSLDEMSQTITDLLSEQK
notes: FIP200 (RB1CC1), human, N-terminal domain, residues 1-640 of 1,594; also called FIP200(N-640)–MBP; FIP200-MBP; not shown: GST, N-terminal, cleaved; MBP, C-terminal, kept

binding result [2]: binds
binding result [3]: binds
binding result (ATG13-MBP:ATG101 complex): binds
B2: FIP200NTD (domain or fragment, human, UniProt Q8TDY2 1-640, looked up)
chain: B1 chain
notes: FIP200 (RB1CC1), human, N-terminal domain, residues 1-640 of 1,594; the form printed without a tag in NSEM, MALS, HDX-MS and cryo-EM samples; also called FIP200 N-terminal domain; untagged FIP200NTD

binding result [4]: binds
B3: GST-FIP200NTD (domain or fragment, human, UniProt Q8TDY2 1-640, looked up)
chain: B1 chain
notes: FIP200 (RB1CC1), human, N-terminal domain, residues 1-640; also called WT FIP200NTD; source: HEK 293-GnT1 suspension cells, transfected; not shown: GST, N-terminal, kept
